Values of other authors in US20210087191A1, “SUBSTITUTED 3-ISOBUTYL-9,10-DIMETHOXY-1,3,4,6,7,11B-HEXAHYDRO-2H-PYRIDO[2,1-a]ISOQUINOLIN-2-OL COMPOUNDS, THEIR SYNTHESIS, AND USE THEREOF” (DISPERSOL TECHNOLOGIES, LLC, priority 2020, published 2021).

Protein sequences, listed by entry. Tags and fused reporters are not part of them.
UniProt Q05940, whole entry, species assumed: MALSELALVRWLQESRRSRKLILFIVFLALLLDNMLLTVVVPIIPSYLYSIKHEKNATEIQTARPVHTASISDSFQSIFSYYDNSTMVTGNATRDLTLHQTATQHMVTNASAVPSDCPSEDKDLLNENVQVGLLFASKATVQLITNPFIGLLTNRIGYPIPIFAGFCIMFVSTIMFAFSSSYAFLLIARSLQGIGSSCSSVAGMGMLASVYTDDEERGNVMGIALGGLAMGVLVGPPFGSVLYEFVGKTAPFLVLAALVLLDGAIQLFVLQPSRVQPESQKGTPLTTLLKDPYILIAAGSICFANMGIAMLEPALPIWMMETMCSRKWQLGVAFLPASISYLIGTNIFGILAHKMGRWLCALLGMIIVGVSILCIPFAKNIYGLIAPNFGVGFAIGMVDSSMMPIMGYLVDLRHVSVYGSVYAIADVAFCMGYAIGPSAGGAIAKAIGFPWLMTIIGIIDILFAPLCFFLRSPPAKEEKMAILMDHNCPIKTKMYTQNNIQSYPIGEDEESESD

Molecular target: VMAT2 (Homo sapiens, UniProt Q05940)
Details: compared to the other three isomers; cited from earlier work

COc1cc2c(cc1OC)[C@H]1C[C@@H](O)[C@H](CC(C)C)CN1CC2 [(+)-α-DHTBZ, 2R,3R,11bR-dihydrotetrabenazine]
inhibitory concentration for VMAT2: lowest inhibitory concentration
